Values quoted from earlier work in paper PMC6470885 (Molecules, 2019).

Settings: cited from earlier work

For human serum albumin, the in vivo half-life is listed as 15 to 19 days.
